Assay results: patent US4092304A, “4-Substituted enkephalin derivatives” (G. D. Searle & Co., priority 1976, dated 1978)

Tested on: opiate receptor sites
Settings: guinea pig whole brain membranes (cerebella removed), 4° C., in the absence of sodium ion

SMILES | ID50 concentration of the 3H-naloxone binding
CN1CC[C@]23c4c5ccc(O)c4O[C@H]2[C@@H](O)C=C[C@H]3[C@H]1C5 [morphine] | 1.2 × 10^-8
CCC(=O)C(CC(C)N(C)C)(c1ccccc1)c1ccccc1 (centres unmarked) [methadone] | 2.4 × 10^-8
